# Measured values as given in PubChem BioAssay AID927 (National Center for Advancing Translational Sciences (NCATS), 2007).
# Protein sequences, listed by entry. Tags and fused reporters are not part of them.
# UniProt O75604, whole entry: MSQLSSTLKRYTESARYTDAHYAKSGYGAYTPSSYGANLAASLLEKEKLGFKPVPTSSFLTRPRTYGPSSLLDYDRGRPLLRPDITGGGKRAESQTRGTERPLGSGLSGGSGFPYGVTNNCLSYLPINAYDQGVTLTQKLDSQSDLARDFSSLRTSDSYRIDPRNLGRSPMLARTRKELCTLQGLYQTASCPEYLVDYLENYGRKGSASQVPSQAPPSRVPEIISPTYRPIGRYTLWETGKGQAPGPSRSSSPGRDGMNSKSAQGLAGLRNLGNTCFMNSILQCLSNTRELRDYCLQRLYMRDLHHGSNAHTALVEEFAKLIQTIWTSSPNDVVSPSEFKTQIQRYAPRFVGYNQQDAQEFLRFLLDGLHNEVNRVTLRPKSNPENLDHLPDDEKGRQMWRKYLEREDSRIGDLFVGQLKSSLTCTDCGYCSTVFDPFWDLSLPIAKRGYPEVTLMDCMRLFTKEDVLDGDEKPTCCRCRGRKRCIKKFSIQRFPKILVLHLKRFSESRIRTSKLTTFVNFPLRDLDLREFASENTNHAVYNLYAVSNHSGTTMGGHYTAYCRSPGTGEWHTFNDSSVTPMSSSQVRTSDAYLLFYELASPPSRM
# This is a selection; strong and weak results do not stand in their true shares. Active and inactive are the calls of the source. Calls come from the whole dose curve; as a rule, active = well fitted inhibition curve with a large enough effect; inconclusive = small, poorly fitted or top-dose-only effect; inactive = no such curve, though single readings can be large or run the other way.
# Biological target: Ubiquitin carboxyl-terminal hydrolase 2 (Homo sapiens) (UniProt O75604)
# Test: qHTS Assay for Inhibitors of Ubiquitin-specific Protease USP2a;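 note: plate controls were DMSO for no effect and NEM full inhibition control for full effect; nearly all actives have a fitted effect of over 60% in size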
# Conditions: USP2a enzymatic assay; at 38.3 µM (top of the series)
# Source text: NIH Molecular Libraries Screening Centers Network [MLSCN]
# NIH Chemical Genomics Center [NCGC]
# PI Name: Nicholson, Ben. Progenra Inc, Malvern, PA
# Homeostasis of cellular proteins is maintained through a combination of synthesis and degradation. The pathway that accounts for the majority of protein degradation is the ubiquitin-proteasomal pathway. Ubiquitin (Ub) is highly conserved in all cells and the generation of a multi-Ub chain typically targets proteins for degradation by the proteasome. However, ubiquitination is highly reversible and dynamic. Deubiquitination, the reverse process, is catalyzed through the action of enzymes referred to as isopeptidases or deubiquitinating enzymes (DUBs). […]
# The reporter enzyme chosen is phospholipase A2 (PLA2), which has an absolute requirement for a free amino terminus. […] Thus, this coupled assay gives a fluorescent read-out, which is generated through the cleavage of the PLA2 reporter enzyme. […]
# The assay buffer, prepared fresh at the day of the assay, contains 20mM Tris-HCl pH 8.0, 2mM CaCl2, 2mM beta-Mercaptoethanol, 0.1% DMSO. […] Plates were read immediately (0 Hour) on an Envision (Perkin Elmer) plate reader using the following wavelengths Ex 460nm /Em 535nm. Then, the assay plates were incubated for 2.5 hours and read again on the Envision using the same settings […]
row,Compound,"activity change, negative = inhibition"
1,CN(CCCl)CCCl,inactive: 15%
